Assay results taken from ChEMBL document CHEMBL2311517, “Novel route to chaetomellic acid A and analogues: serendipitous discovery of a more competent FTase inhibitor” (Bioorg Med Chem, 2013).

Tested on: Saccharomyces cerevisiae
Assay: Ratio of chaetomellic acid A IC50 to compound IC50 for yeast farnesyltransferase using dansyl-GCVIA as substrate preincubated for 5 mins measured over 300 secs by continuous fluorescence assay

CCCCSCCCCCCCCC/C(C(=O)O)=C(\C)C(=O)O
Ratio IC50: 5
